# Tested on: Staphylococcus aureus
# Details: ATCC 29213, time 16-18 hrs
sequence,measurement,value
GENTAMICIN,MIC,0.5 µg/mL

# Reference: ChEMBL document CHEMBL4840338, “Cudraflavone C from Artocarpus hirsutus as a Promising Inhibitor of Pathogenic, Multidrug-Resistant S. aureus, Persisters, and Biofilms: A New Insight into a Rational Explanation of Traditional Wisdom” (J Nat Prod, 2021)
